The values that follow are results of earlier work, collected in article PMC3138524 (European journal of pharmacology, 2011).

Sequences of proteins named here, by UniProt entry; tags and fusion partners are left off.
UniProt P32245, whole entry: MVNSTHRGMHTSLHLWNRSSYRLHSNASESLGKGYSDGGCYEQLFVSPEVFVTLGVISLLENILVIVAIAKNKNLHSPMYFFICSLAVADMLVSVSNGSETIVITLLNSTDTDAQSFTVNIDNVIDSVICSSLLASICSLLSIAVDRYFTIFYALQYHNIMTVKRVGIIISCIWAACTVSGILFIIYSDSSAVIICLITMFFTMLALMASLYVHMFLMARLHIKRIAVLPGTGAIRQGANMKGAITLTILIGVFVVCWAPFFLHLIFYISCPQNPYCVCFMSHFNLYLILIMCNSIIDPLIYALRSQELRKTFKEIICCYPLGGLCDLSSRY

Data set [1] concerns the target T1, MC4R (Homo sapiens, UniProt P32245). Type of data set: cell-based, HEK293. To be noted: read-out: Binding Affinities IC50; n = 2.
Data set [2] addresses T1, MC4R. Type of data set: cell-based, HEK293. To be noted: read-out: Functional Assays cAMP EC50; n = 2.

For the substance “Tyr-Val-Nle-Gly-His-D-Nal(2′)-Arg-Trp-Asp-Arg-Phe-Gly-NH2 [compound 1]”, the IC50 at MC4R [1] is 0.0025 µM. At MC4R [2], the EC50 was 0.024 µM.

As usually defined, the IC50 is the concentration needed to halve the response being measured. The EC50 is the midpoint of the concentration-response curve.
